Consider eleven molecules from US11945807B2, “Splicing modulator antibody-drug conjugates and methods of use” (EISAI R&D MANAGEMENT CO., LTD., priority 2018, dated 2024).

The nature of this data set: LC/MS analysis - DAR. It counts as physicochemical. The conditions noted are these: anti-EPHA2 ADCs.

B1: AB206-ADL12-D2 (conjugate)
heavy: EVQLLESGGGLVQPGGSLRLSCAASGFTFSHYMMAWVRQAPGKGLEWVSRIGPSGGPTHYADSVKGRFTISRDNSKNTLYLQMNSLRAEDTAVYYCAGYDSGYDYVAVAGPAEYFQHWGQGTLVTVSSASTKGPSVFPLAPSSKSTSGGTAALGCLVKDYFPEPVTVSWNSGALTSGVHTFPAVLQSSGLYSLSSVVTVPSSSLGTQTYICNVNHKPSNTKVDKKV[sequence of human IgG1 Fc not given]
light: DIQMTQSPSSLSASVGDRVTITCRASQSISTWLAWYQQKPGKAPKLLIYKASNLHTGVPSRFSGSGSGTEFSLTISGLQPDDFATYYCQQYNSYSRTFGQGTKVEIKRTVAAPSVFIFPPSDEQLKSGTASVVCLLNNFYPREAKVQWKVDNALQSGNSQESVTEQDSKDSTYSLSSTLTLSKADYEKHKVYACEVTHQGLSSPVTKSFNRGEC
B1 had a DAR of 6.3.

B2: AB206-ADL5-D25 (conjugate)
heavy: EVQLLESGGGLVQPGGSLRLSCAASGFTFSHYMMAWVRQAPGKGLEWVSRIGPSGGPTHYADSVKGRFTISRDNSKNTLYLQMNSLRAEDTAVYYCAGYDSGYDYVAVAGPAEYFQHWGQGTLVTVSSASTKGPSVFPLAPSSKSTSGGTAALGCLVKDYFPEPVTVSWNSGALTSGVHTFPAVLQSSGLYSLSSVVTVPSSSLGTQTYICNVNHKPSNTKVDKKV[sequence of human IgG1 Fc not given]
light: DIQMTQSPSSLSASVGDRVTITCRASQSISTWLAWYQQKPGKAPKLLIYKASNLHTGVPSRFSGSGSGTEFSLTISGLQPDDFATYYCQQYNSYSRTFGQGTKVEIKRTVAAPSVFIFPPSDEQLKSGTASVVCLLNNFYPREAKVQWKVDNALQSGNSQESVTEQDSKDSTYSLSSTLTLSKADYEKHKVYACEVTHQGLSSPVTKSFNRGEC
In turn, B2 showed a DAR of 5.

B3: AB206-ADL1-D14 (conjugate)
heavy: EVQLLESGGGLVQPGGSLRLSCAASGFTFSHYMMAWVRQAPGKGLEWVSRIGPSGGPTHYADSVKGRFTISRDNSKNTLYLQMNSLRAEDTAVYYCAGYDSGYDYVAVAGPAEYFQHWGQGTLVTVSSASTKGPSVFPLAPSSKSTSGGTAALGCLVKDYFPEPVTVSWNSGALTSGVHTFPAVLQSSGLYSLSSVVTVPSSSLGTQTYICNVNHKPSNTKVDKKV[sequence of human IgG1 Fc not given]
light: DIQMTQSPSSLSASVGDRVTITCRASQSISTWLAWYQQKPGKAPKLLIYKASNLHTGVPSRFSGSGSGTEFSLTISGLQPDDFATYYCQQYNSYSRTFGQGTKVEIKRTVAAPSVFIFPPSDEQLKSGTASVVCLLNNFYPREAKVQWKVDNALQSGNSQESVTEQDSKDSTYSLSSTLTLSKADYEKHKVYACEVTHQGLSSPVTKSFNRGEC
Turning to B3, the DAR was determined as 3.6.

B4: AB206-ADL12-D1 (conjugate)
heavy: EVQLLESGGGLVQPGGSLRLSCAASGFTFSHYMMAWVRQAPGKGLEWVSRIGPSGGPTHYADSVKGRFTISRDNSKNTLYLQMNSLRAEDTAVYYCAGYDSGYDYVAVAGPAEYFQHWGQGTLVTVSSASTKGPSVFPLAPSSKSTSGGTAALGCLVKDYFPEPVTVSWNSGALTSGVHTFPAVLQSSGLYSLSSVVTVPSSSLGTQTYICNVNHKPSNTKVDKKV[sequence of human IgG1 Fc not given]
light: DIQMTQSPSSLSASVGDRVTITCRASQSISTWLAWYQQKPGKAPKLLIYKASNLHTGVPSRFSGSGSGTEFSLTISGLQPDDFATYYCQQYNSYSRTFGQGTKVEIKRTVAAPSVFIFPPSDEQLKSGTASVVCLLNNFYPREAKVQWKVDNALQSGNSQESVTEQDSKDSTYSLSSTLTLSKADYEKHKVYACEVTHQGLSSPVTKSFNRGEC
B4 displayed a DAR of 6.4.

B5: AB206-ADL1-D4 (conjugate)
heavy: EVQLLESGGGLVQPGGSLRLSCAASGFTFSHYMMAWVRQAPGKGLEWVSRIGPSGGPTHYADSVKGRFTISRDNSKNTLYLQMNSLRAEDTAVYYCAGYDSGYDYVAVAGPAEYFQHWGQGTLVTVSSASTKGPSVFPLAPSSKSTSGGTAALGCLVKDYFPEPVTVSWNSGALTSGVHTFPAVLQSSGLYSLSSVVTVPSSSLGTQTYICNVNHKPSNTKVDKKV[sequence of human IgG1 Fc not given]
light: DIQMTQSPSSLSASVGDRVTITCRASQSISTWLAWYQQKPGKAPKLLIYKASNLHTGVPSRFSGSGSGTEFSLTISGLQPDDFATYYCQQYNSYSRTFGQGTKVEIKRTVAAPSVFIFPPSDEQLKSGTASVVCLLNNFYPREAKVQWKVDNALQSGNSQESVTEQDSKDSTYSLSSTLTLSKADYEKHKVYACEVTHQGLSSPVTKSFNRGEC
With B5, the DAR is recorded as 6.

B6: AB206-ADL5-D15 (conjugate)
heavy: EVQLLESGGGLVQPGGSLRLSCAASGFTFSHYMMAWVRQAPGKGLEWVSRIGPSGGPTHYADSVKGRFTISRDNSKNTLYLQMNSLRAEDTAVYYCAGYDSGYDYVAVAGPAEYFQHWGQGTLVTVSSASTKGPSVFPLAPSSKSTSGGTAALGCLVKDYFPEPVTVSWNSGALTSGVHTFPAVLQSSGLYSLSSVVTVPSSSLGTQTYICNVNHKPSNTKVDKKV[sequence of human IgG1 Fc not given]
light: DIQMTQSPSSLSASVGDRVTITCRASQSISTWLAWYQQKPGKAPKLLIYKASNLHTGVPSRFSGSGSGTEFSLTISGLQPDDFATYYCQQYNSYSRTFGQGTKVEIKRTVAAPSVFIFPPSDEQLKSGTASVVCLLNNFYPREAKVQWKVDNALQSGNSQESVTEQDSKDSTYSLSSTLTLSKADYEKHKVYACEVTHQGLSSPVTKSFNRGEC
The molecule B6 showed a DAR of 4.2.

B7: AB206-ADL5-D2 (conjugate)
heavy: EVQLLESGGGLVQPGGSLRLSCAASGFTFSHYMMAWVRQAPGKGLEWVSRIGPSGGPTHYADSVKGRFTISRDNSKNTLYLQMNSLRAEDTAVYYCAGYDSGYDYVAVAGPAEYFQHWGQGTLVTVSSASTKGPSVFPLAPSSKSTSGGTAALGCLVKDYFPEPVTVSWNSGALTSGVHTFPAVLQSSGLYSLSSVVTVPSSSLGTQTYICNVNHKPSNTKVDKKV[sequence of human IgG1 Fc not given]
light: DIQMTQSPSSLSASVGDRVTITCRASQSISTWLAWYQQKPGKAPKLLIYKASNLHTGVPSRFSGSGSGTEFSLTISGLQPDDFATYYCQQYNSYSRTFGQGTKVEIKRTVAAPSVFIFPPSDEQLKSGTASVVCLLNNFYPREAKVQWKVDNALQSGNSQESVTEQDSKDSTYSLSSTLTLSKADYEKHKVYACEVTHQGLSSPVTKSFNRGEC
For B7, the DAR is reported as 6.3.

B8: AB206-ADL10-D1 (conjugate)
heavy: EVQLLESGGGLVQPGGSLRLSCAASGFTFSHYMMAWVRQAPGKGLEWVSRIGPSGGPTHYADSVKGRFTISRDNSKNTLYLQMNSLRAEDTAVYYCAGYDSGYDYVAVAGPAEYFQHWGQGTLVTVSSASTKGPSVFPLAPSSKSTSGGTAALGCLVKDYFPEPVTVSWNSGALTSGVHTFPAVLQSSGLYSLSSVVTVPSSSLGTQTYICNVNHKPSNTKVDKKV[sequence of human IgG1 Fc not given]
light: DIQMTQSPSSLSASVGDRVTITCRASQSISTWLAWYQQKPGKAPKLLIYKASNLHTGVPSRFSGSGSGTEFSLTISGLQPDDFATYYCQQYNSYSRTFGQGTKVEIKRTVAAPSVFIFPPSDEQLKSGTASVVCLLNNFYPREAKVQWKVDNALQSGNSQESVTEQDSKDSTYSLSSTLTLSKADYEKHKVYACEVTHQGLSSPVTKSFNRGEC
For B8, the DAR was found to be 2.7.

B9: AB206-ADL1-D1 (conjugate)
heavy: EVQLLESGGGLVQPGGSLRLSCAASGFTFSHYMMAWVRQAPGKGLEWVSRIGPSGGPTHYADSVKGRFTISRDNSKNTLYLQMNSLRAEDTAVYYCAGYDSGYDYVAVAGPAEYFQHWGQGTLVTVSSASTKGPSVFPLAPSSKSTSGGTAALGCLVKDYFPEPVTVSWNSGALTSGVHTFPAVLQSSGLYSLSSVVTVPSSSLGTQTYICNVNHKPSNTKVDKKV[sequence of human IgG1 Fc not given]
light: DIQMTQSPSSLSASVGDRVTITCRASQSISTWLAWYQQKPGKAPKLLIYKASNLHTGVPSRFSGSGSGTEFSLTISGLQPDDFATYYCQQYNSYSRTFGQGTKVEIKRTVAAPSVFIFPPSDEQLKSGTASVVCLLNNFYPREAKVQWKVDNALQSGNSQESVTEQDSKDSTYSLSSTLTLSKADYEKHKVYACEVTHQGLSSPVTKSFNRGEC
Molecule B9 gave a DAR of 5.6.

B10: AB206-ADL1-D8 (conjugate)
heavy: EVQLLESGGGLVQPGGSLRLSCAASGFTFSHYMMAWVRQAPGKGLEWVSRIGPSGGPTHYADSVKGRFTISRDNSKNTLYLQMNSLRAEDTAVYYCAGYDSGYDYVAVAGPAEYFQHWGQGTLVTVSSASTKGPSVFPLAPSSKSTSGGTAALGCLVKDYFPEPVTVSWNSGALTSGVHTFPAVLQSSGLYSLSSVVTVPSSSLGTQTYICNVNHKPSNTKVDKKV[sequence of human IgG1 Fc not given]
light: DIQMTQSPSSLSASVGDRVTITCRASQSISTWLAWYQQKPGKAPKLLIYKASNLHTGVPSRFSGSGSGTEFSLTISGLQPDDFATYYCQQYNSYSRTFGQGTKVEIKRTVAAPSVFIFPPSDEQLKSGTASVVCLLNNFYPREAKVQWKVDNALQSGNSQESVTEQDSKDSTYSLSSTLTLSKADYEKHKVYACEVTHQGLSSPVTKSFNRGEC
In the case of B10, the DAR worked out at 6.5.

B11: AB206-ADL5-D19 (conjugate)
heavy: EVQLLESGGGLVQPGGSLRLSCAASGFTFSHYMMAWVRQAPGKGLEWVSRIGPSGGPTHYADSVKGRFTISRDNSKNTLYLQMNSLRAEDTAVYYCAGYDSGYDYVAVAGPAEYFQHWGQGTLVTVSSASTKGPSVFPLAPSSKSTSGGTAALGCLVKDYFPEPVTVSWNSGALTSGVHTFPAVLQSSGLYSLSSVVTVPSSSLGTQTYICNVNHKPSNTKVDKKV[sequence of human IgG1 Fc not given]
light: DIQMTQSPSSLSASVGDRVTITCRASQSISTWLAWYQQKPGKAPKLLIYKASNLHTGVPSRFSGSGSGTEFSLTISGLQPDDFATYYCQQYNSYSRTFGQGTKVEIKRTVAAPSVFIFPPSDEQLKSGTASVVCLLNNFYPREAKVQWKVDNALQSGNSQESVTEQDSKDSTYSLSSTLTLSKADYEKHKVYACEVTHQGLSSPVTKSFNRGEC
As to B11, the DAR was found to be 4.6.
